Data from patent US8603990B2, “Grafted macromolecular conjugates of doxorubicin with anticancer activity and method of their preparation” (priority 2006, dated 2013).

System: mouse T cellular lymphoma EL4
Conditions: 1×15 mg/kg DOX equivalent i.v. on day 9
Experimental: The in vivo experiments involved a model of mouse T cellular lymphoma EL4, the experimental animals were mice (males) of the B/6 species that were subcutaneously implanted with 10^5 tumor cells on day 0. The conjugates were applied intravenously in a dose of 1×15 mg/kg of DOX equivalent. This single application was carried out on the ninth day after the tumor cells transplantation, i.e. at a time when the tumor was palpable, about approx. 400 mm^3 in size.

Substance: poly(HPMA-co-MA-AH-NHNH2-co-MA-AH-NHN=DOX-co-MA-AH-SS—)-graft-[(SS)-poly(HPMA-co-MA-AH-NHNH2-MA-AH-NHN=DOX)] [Conjugate 3a]
- Weight decrease as a sign of toxicity: no weight decrease
